Values quoted from earlier work as cited in patent EP0719130B1, “COMPLEX CALCIUM AND FLUORIDE CONTAINING MOUTH RINSES, DENTIFRICES, AND CHEWABLE TABLETS” (AMERICAN DENTAL ASSOCIATION HEALTH FOUNDATION, priority 1993, dated 1995).

Settings: buffer acid or salt

O=C(O)CCC(=O)O [succinic acid]
pK: 5.61
